{
  "source": "patent US20230128344A1",
  "about": "(UNIVERSITY OF SOUTHERN CALIFORNIA, published 2023)",
  "binders": {"B1": {"name": "DAR4-ARC-ADC (DAR4-ARC-IgG conjugated with 2'-Cl-araNAD+-MMAF) (antibody)", "heavy": "DIQLQESGPGLVKPSQSLSLTCSVTGYSITSAYYWNWIRQFPGNKLEWMGYISYDGRNNYNPSLKNRISITRDTSKNQFFLKLNSVTTEDTATYYCAKEGDYDVGNYYAMDYWGQGTSVTVSSARTKGPSVFPLAPSSKSTSGGTAALGCLVKDYFPEPVTVSWNSGALTSGVHTFPAVLQSSGLYSLSSVVTVPSSSLGTQTYICNVNHKPSNTKVDKKV[about 500 residues with a human IgG1 Fc skipped]", "light": "ENVLTQSPAIMSASPGEKVTMTCRASSNVISSYVHWYQQRSGASPKLWIYSTSNLASGVPARFSGSGSGTSYSLTISSVEAEDAATYYCQQYSGYPLTFGAGTKLELKRAAAAPSVFIFPPSDEQLKSGTASVVCLLNNFYPREAKVQWKVDNALQSGNSQESVTEQDSKDSTYSLSSTLTLSKADYEKHKVYACEVTHQGLSSPVTKSFNRGECGGGGS[about 250 residues skipped]", "modifications": "2'-Cl-arabinose-ADP-MMAF on Glu226 of the CD38 domain (CD38 numbering)"}},
  "molecular_target": "T1, hCLL-1 on U937 human AML cells (human, UniProt Q5QGZ9 1-265)",
  "T1 sequence (looked up)": "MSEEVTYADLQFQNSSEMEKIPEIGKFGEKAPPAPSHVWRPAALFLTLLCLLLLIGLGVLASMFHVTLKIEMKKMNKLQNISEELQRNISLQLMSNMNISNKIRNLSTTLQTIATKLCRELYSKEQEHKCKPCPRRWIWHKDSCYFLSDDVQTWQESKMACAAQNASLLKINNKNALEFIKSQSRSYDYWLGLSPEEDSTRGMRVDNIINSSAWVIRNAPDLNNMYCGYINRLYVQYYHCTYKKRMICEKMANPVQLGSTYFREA",
  "assay": "cell-based or functional assay",
  "data": [
    {"binder": "B1", "values": [
      {"measurement": "in vitro cytotoxicity EC50 on U937 (CLL-1+) cells (MTT, 72 hours)", "result": 0.025, "unit": "nM"}
    ]}
  ]
}
